## Measured affinities in a library of Ab-95 light chain variants

The measurements come from Engelhart et al. 2022 (doi:10.1038/s41597-022-01779-4) through the FLAb antibody collection.

Target peptide (SARS-CoV-2 spike, HR2 region): PDVDLGDISGINAS

Ab-95 is the parent antibody, in scFv form: VH, then a 15-residue (Gly4Ser)3 linker, then VL. The heavy chain is unchanged in all variants.
VH: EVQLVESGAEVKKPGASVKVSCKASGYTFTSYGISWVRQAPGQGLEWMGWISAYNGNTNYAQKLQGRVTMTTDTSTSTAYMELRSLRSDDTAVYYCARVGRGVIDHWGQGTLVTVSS
VL: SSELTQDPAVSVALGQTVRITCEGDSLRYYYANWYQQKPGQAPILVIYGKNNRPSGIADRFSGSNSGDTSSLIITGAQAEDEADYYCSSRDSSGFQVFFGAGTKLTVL

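The library (AAYL52) carries one to three amino acid substitutions per variant, with no insertions or deletions. The scFvs were displayed on barcoded MATa yeast, the peptide on MATalpha yeast. After mating in shaken culture at 30 °C for 16 h, diploids were selected and their barcode pairs sequenced. Each replicate has its own calibration line, from reference interactions of the BCL2 family. The assay was run in three technical replicates.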

Changes read parent residue, position, new residue, counted from the first residue of the VL shown. This list gathers variants with a substitution at S93 (VL, numbered from residue 1). Values are log10 of the apparent Kd in nM; lower means stronger binding. A mean of the replicates is given; it leaves out those without a signal. An entry "nd" has no value in the source: the pair was not observed among the diploids in any replicate. This suggests poor binding but is not conclusive. Background: pairings of library AAYL52 with three empty control strains gave a value in 28% of cases (median 3.91, 5th percentile 2.90). Values in that range, when seen in few replicates, are hard to tell from nonspecific mating.

The variant Y31T+P54Y+S93L gave 3.94 (1 of 3 replicates).
The variant S88M+S93Q+G94H gave 3.29 (1 of 3 replicates).
The variant N52C+S93T+F98H gave 4.32 (3 of 3 replicates).
The variant Y29V+N51T+S93E gave 4.63 (1 of 3 replicates).
The variant N52K+S93I+G94Q gave 4.26 (2 of 3 replicates).
The variant Y29F+S89V+S93N gave 2.99 (3 of 3 replicates).
The variant N33H+S93F gave 3.27 (2 of 3 replicates).
The variant A32D+P54H+S93L gave 3.40 (1 of 3 replicates).
The variant E23K+R28F+S93W gave 2.90 (3 of 3 replicates).
The variant Y31D+S93W+V97T gave 1.14 (3 of 3 replicates).
The variant E23A+K50P+S93F gave 2.64 (3 of 3 replicates).
The variant Y30C+R53F+S93W gave 3.82 (3 of 3 replicates).
The variant E23Q+S92G+S93F gave 2.33 (3 of 3 replicates).
The variant E23A+R90T+S93H gave 2.65 (3 of 3 replicates).
The variant N52Y+S93H gave 3.97 (2 of 3 replicates).
The variant R28N+R90Y+S93I gave 5.44 (1 of 3 replicates).
The variant N33V+S93F+F95T gave 3.78 (1 of 3 replicates).
The variant L27N+Y31G+S93V gave 2.87 (2 of 3 replicates).
The variant G24R+R28S+S93R gave 3.65 (2 of 3 replicates).
The variant Y30L+S93Q+F95N gave 2.28 (1 of 3 replicates).
The variant Y30D+S93Y+Q96P gave 2.57 (3 of 3 replicates).
The variant D25T+Y29V+S93E gave 5.54 (1 of 3 replicates).
The variant N51D+P54D+S93A gave 3.82 (2 of 3 replicates).
The variant D25W+Y30T+S93C gave 2.14 (3 of 3 replicates).
The variant L27E+S93W+F98W gave 3.84 (2 of 3 replicates).
The variant N52Y+R90L+S93T gave 4.20 (2 of 3 replicates).
The variant A32D+S93I gave nd (0 of 3 replicates).
The variant Y31M+S89E+S93K gave 3.93 (2 of 3 replicates).
The variant R90S+S93N+F95A gave 2.89 (2 of 3 replicates).
The variant S92N+S93G+G94N gave 2.48 (3 of 3 replicates).
The variant N33D+D91L+S93M gave 3.45 (2 of 3 replicates).
The variant N51L+S93L+Q96C gave 4.03 (3 of 3 replicates).
The variant N51T+S93V+Q96E gave 3.11 (1 of 3 replicates).
The variant N51R+S88N+S93A gave 4.39 (2 of 3 replicates).
The variant S89P+S93G+F95W gave 2.15 (3 of 3 replicates).
The variant S93T+Q96E gave 2.36 (3 of 3 replicates).

The 5 strongest on average among those seen in every replicate, once more:

| changes | mean log10 Kd (nM) | detected |
|---|---|---|
| Y31D+S93W+V97T | 1.14 | 3/3 |
| D25W+Y30T+S93C | 2.14 | 3/3 |
| S89P+S93G+F95W | 2.15 | 3/3 |
| E23Q+S92G+S93F | 2.33 | 3/3 |
| S93T+Q96E | 2.36 | 3/3 |